Here are results for three compounds from ChEMBL document CHEMBL3132828, “In vitro anticancer activity and SAR studies of triazolyl aminoacyl(peptidyl) penicillins” (Medchemcomm, 2014).

Series [1] is described as follows: Selectivity ratio of IC50 for mouse NMuMG cells to IC50 for human HeLa cells. The format is ADME, cell-based.
Series [2] in a line: Cytotoxicity against mouse NMuMG cells assessed as hexosaminidase level after 72 hrs by colorimetric analysis. It is filed as cell-based.
The test system of series [3] is HeLa. Put plainly: Cytotoxicity against human HeLa cells assessed as hexosaminidase level after 72 hrs by colorimetric analysis.
A short description of series [4]: Cytotoxicity against mouse B16F0 cells assessed as hexosaminidase level after 72 hrs by colorimetric analysis.
A short description of series [5]: Selectivity ratio of IC50 for mouse NMuMG cells to IC50 for mouse B16F0 cells. The format is ADME, cell-based.

Regarding `CC1(C)S[C@H]2N(C(=O)C2(Br)Br)[C@H]1C(=O)OCc1ccccc1`, the Ratio IC50 is 6 in series [1] and 5 in series [5]. Also, the IC50 worked out at 69 µM in series [2], 12 µM in series [3] and 15 µM in series [4].

Turning to `COC(=O)[C@@H](NC(=O)c1cn(C[C@@H]2N3C(=O)C(Br)(Br)[C@H]3SC2(C)C)nn1)C(C)C`, the Ratio IC50 in series [1] came out at 3; in series [5] it was 2. Further, the 50% inhibitory concentration (IC50) amounted to 33 µM in series [2], 12 µM in series [3] and 18 µM in series [4].

`COC(=O)[C@H](CC(C)C)NC(=O)c1cn(C[C@@H]2N3C(=O)C(Br)(Br)[C@H]3SC2(C)C)nn1`: the IC50 came out at 39 µM in series [2] and 18 µM in series [4]. For the same compound, the Ratio IC50 in series [5] stood at 2.
